Chains of the proteins cited; added tags and fusions are not shown.
UniProt P29475, whole entry: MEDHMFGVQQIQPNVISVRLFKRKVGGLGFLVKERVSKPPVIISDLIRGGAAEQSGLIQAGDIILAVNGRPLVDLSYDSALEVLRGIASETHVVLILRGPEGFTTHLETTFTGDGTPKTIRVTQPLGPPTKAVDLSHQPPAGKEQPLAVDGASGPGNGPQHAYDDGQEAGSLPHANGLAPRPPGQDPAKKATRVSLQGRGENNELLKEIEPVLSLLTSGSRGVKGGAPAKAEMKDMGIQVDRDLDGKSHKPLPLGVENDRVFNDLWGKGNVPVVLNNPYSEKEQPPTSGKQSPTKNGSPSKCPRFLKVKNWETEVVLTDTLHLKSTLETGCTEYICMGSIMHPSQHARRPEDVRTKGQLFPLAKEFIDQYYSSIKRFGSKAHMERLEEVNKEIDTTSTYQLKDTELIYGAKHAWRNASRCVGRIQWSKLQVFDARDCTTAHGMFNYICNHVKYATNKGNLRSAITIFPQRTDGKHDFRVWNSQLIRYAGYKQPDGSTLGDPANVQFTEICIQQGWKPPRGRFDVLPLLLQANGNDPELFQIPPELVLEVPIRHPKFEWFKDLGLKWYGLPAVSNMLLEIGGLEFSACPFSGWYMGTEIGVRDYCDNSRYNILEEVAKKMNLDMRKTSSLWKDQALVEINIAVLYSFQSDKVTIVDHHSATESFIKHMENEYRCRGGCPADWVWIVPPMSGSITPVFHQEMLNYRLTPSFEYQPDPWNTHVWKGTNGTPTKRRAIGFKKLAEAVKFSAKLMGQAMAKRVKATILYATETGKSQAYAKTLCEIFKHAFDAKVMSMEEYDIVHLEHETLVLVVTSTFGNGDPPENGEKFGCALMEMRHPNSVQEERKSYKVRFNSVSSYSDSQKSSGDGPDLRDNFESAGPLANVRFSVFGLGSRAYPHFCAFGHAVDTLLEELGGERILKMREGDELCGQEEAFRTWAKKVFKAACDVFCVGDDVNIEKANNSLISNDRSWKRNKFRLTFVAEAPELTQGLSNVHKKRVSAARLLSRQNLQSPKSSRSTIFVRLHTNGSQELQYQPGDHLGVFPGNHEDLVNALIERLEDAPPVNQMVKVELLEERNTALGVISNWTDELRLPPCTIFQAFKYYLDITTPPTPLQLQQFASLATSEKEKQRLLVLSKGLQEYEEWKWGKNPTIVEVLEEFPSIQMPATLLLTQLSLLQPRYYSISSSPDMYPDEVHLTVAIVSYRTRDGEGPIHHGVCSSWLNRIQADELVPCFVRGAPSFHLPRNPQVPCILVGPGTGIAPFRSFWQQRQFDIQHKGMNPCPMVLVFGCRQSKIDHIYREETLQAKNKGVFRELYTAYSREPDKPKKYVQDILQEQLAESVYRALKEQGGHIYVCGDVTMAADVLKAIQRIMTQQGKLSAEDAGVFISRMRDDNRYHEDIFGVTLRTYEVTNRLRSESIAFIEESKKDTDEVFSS
UniProt P35228, whole entry: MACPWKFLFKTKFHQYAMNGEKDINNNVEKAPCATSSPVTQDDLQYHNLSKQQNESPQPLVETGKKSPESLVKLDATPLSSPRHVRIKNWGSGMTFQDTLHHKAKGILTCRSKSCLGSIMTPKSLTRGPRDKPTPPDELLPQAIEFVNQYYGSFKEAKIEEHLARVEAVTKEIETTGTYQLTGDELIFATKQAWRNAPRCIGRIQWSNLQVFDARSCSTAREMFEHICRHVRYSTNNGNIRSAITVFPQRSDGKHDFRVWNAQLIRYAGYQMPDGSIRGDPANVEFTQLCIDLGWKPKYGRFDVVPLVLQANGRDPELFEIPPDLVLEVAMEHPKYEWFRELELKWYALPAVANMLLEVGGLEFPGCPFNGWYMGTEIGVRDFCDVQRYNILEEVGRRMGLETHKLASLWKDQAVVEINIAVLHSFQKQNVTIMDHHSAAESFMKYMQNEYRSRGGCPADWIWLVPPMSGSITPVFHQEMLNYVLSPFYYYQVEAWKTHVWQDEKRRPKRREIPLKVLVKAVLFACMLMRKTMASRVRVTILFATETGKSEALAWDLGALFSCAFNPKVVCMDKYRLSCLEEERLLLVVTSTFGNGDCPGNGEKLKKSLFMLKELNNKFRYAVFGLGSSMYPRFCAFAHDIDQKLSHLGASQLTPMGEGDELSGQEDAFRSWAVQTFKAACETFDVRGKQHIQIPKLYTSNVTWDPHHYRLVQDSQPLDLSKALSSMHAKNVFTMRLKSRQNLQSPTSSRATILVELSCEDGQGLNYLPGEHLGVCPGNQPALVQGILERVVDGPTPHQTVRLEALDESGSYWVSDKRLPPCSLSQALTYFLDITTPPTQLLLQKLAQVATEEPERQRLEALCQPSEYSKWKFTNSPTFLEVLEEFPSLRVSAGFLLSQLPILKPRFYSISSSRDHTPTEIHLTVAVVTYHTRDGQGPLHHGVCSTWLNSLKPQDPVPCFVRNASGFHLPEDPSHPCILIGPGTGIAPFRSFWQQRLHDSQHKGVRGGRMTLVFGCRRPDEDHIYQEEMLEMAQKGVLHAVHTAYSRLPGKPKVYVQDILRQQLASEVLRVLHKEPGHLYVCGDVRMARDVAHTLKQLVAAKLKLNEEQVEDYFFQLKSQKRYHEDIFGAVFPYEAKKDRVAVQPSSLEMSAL

According to ChEMBL document CHEMBL1131208, “Substituted 2-iminopiperidines as inhibitors of human nitric oxide synthase isoforms” (J Med Chem, 1998):

Key:
Nitric oxide synthase 1 = Nitric oxide synthase 1 (Homo sapiens, UniProt P29475); assay: Inhibition of human Neuronal nitric oxide synthase
[1] = target: Nitric oxide synthase, inducible (Homo sapiens, UniProt P35228); assay: Inhibition of human Inducible nitric oxide synthase
Nitric oxide synthase 3 = target: T1, Nitric oxide synthase 3 (Homo sapiens, UniProt P29474); assay: inhibition of human endothelial constitutive Endothelial nitric oxide synthase (heNOS)
T1 sequence (P29474 whole entry): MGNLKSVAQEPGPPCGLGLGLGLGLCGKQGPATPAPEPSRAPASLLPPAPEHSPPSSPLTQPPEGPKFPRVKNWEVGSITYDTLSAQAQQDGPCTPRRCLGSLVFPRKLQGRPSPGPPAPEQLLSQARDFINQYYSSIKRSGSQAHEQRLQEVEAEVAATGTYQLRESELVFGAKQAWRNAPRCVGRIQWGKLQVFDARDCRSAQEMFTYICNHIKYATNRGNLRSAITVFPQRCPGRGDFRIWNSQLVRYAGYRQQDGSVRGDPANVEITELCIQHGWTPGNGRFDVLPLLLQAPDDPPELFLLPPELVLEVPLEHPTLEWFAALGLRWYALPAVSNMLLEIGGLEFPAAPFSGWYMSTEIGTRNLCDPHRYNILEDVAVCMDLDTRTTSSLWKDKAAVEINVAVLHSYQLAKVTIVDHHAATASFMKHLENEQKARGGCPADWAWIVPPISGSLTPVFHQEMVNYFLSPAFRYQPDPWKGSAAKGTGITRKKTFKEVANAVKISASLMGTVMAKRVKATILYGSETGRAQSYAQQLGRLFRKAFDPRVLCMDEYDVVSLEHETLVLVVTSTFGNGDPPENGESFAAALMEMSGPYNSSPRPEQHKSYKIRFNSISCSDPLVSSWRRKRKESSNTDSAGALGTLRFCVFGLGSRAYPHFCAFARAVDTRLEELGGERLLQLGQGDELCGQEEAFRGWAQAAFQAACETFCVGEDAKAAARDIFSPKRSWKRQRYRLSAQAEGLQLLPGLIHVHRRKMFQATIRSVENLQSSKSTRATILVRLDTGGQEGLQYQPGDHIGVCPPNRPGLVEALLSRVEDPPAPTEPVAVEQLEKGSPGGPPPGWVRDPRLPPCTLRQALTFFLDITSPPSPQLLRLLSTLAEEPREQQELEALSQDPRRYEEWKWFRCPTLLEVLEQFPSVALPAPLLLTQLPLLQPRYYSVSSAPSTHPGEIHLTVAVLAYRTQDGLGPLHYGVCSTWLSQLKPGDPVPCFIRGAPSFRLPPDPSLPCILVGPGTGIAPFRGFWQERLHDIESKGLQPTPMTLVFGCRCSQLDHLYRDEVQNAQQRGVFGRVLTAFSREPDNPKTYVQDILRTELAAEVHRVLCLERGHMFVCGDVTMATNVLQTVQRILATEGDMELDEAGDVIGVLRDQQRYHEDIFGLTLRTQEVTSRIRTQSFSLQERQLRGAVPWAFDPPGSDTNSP

| IC50 (Nitric oxide synthase 1) [µM] | IC50 [1] [µM] | IC50 (Nitric oxide synthase 3) [µM] | Structure (SMILES) |
| --- | --- | --- | --- |
| 4.5 | – | – | CC1CCC(N)=NC1 (stereo not drawn) |
| – | 9.2 | 44 | NC1=NC(Cc2ccccc2)CCC1 (stereo not drawn) |
